Rtt109 Vps75: C. albicans Rtt109 histone acetyltransferase inhibition; purified Rtt109/Vps75, ThioGlo CoA-SH fluorescence, 4 h; inhibition, % at 34.9 µM; actives 0.16% (n = 330,000); AID 540336;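 active = inhibition of at least 50% in every replicate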
CDK5 inh: inhibitors of human CDK5/p35 kinase | Recombinant CDK5/p35, ADP-Glo luminescence, 60 min | inhibition, % at 10 µM | actives 0.01% (n = 330,000);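 active = highest replicate inhibition of at least 50% and at least 75% of replicates reaching 50%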;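 also: plate controls were DMSO neutral control for no effect and GW8510 at 10 µM for full effect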
Yeast UUG start: modulators of start codon recognition fidelity in yeast; AID 602363; activity score, % at 18.7 µM; S. cerevisiae UUG-firefly luciferase reporter, luminescence/redox ratio; actives 0.13% (n = 350,000);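 active = replicate mean at a twofold rise or more, about +100% in these data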;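 note: firefly luciferase made from a UUG start codon reports start codon fidelity; reporter light over untreated wells divided by growth signal over untreated wells; some hits fall short of that in this replicate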
Cneo AK release: Cryptococcus neoformans lysis via adenylate kinase release; C. neoformans lysis, adenylate kinase release luminescence, 4 h; normalised: neutral wells 0, clomiphene wells 100; lysis activity, % at 15 µM; actives 0.2% (n = 360,000);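 active = mean lysis activity across replicates of at least 80%, whatever share of replicates individually reach that level; inactive = mean lysis activity below 80%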
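Signal: Adenylate kinase release luminescence | Assay system: Log-phase Cryptococcus neoformans yeast cells | Input: Cells at 5 × 10^6 per mL | Buffer or medium: Fresh YPD growth medium | Compound: Single dose | Schedule: Static 4 h at 37 °C with compound, 1 h detection | Controls: Clomiphene | Read-out: Luminescence rise reflecting yeast cell lysis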
C2C12 statin: protects C2C12 myotubes from simvastatin toxicity; ATP luminescence, 48 h; scaled: DMSO 0, geranylgeraniol control 100; rescue of ATP level, % at 7.49 µM; actives 0.78% (n = 330,000);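 active = mean ATP rescue above about 67%, or every replicate alone reaching that limit, limit read from the data, passing the limit was not always enough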;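 also: myotubes were challenged with 10 µM simvastatin during compound exposure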
* hit, by the source's call; x = no result. In the library only some 1% were active in any assay of this set; here they are far more common.

SMILES	Rtt109 Vps75	CDK5 inh	Yeast UUG start	Cneo AK release	C2C12 statin
CO[C@H]1CN(C)C(=O)c2cc(NS(C)(=O)=O)ccc2OC[C@H](C)N(C(=O)CN(C)C)C[C@@H]1C	x	x	-1	-4	-7
C/C=C/c1ccc2c(c1)O[C@H](CN(C)C(=O)Cc1cccnc1)[C@H](C)CN([C@@H](C)CO)S2(=O)=O	x	x	x	x	-2
COc1cccc(S(=O)(=O)N(C)C[C@@H]2Oc3cc(C4=CCCCC4)ccc3S(=O)(=O)N([C@H](C)CO)C[C@@H]2C)c1	x	x	x	1	-25
CC=Cc1ccc2n(c1=O)C[C@H]1[C@H](CO)[C@@H](C(=O)NCCc3cn(C)cn3)N(C(=O)C3CCC3)[C@@H]21 (mixture of isomers)	x	x	x	-1	9
CC(C)NC(=O)Nc1ccc2c(c1)CC(=O)N([C@H](C)CO)C[C@@H](C)[C@@H](CN(C)Cc1ccc(Oc3ccccc3)cc1)O2	x	x	41	105*	-75
C[C@H](CO)N1C[C@H](C)[C@@H](CN(C)Cc2ccc(Oc3ccccc3)cc2)Oc2ccc(NC(=O)Nc3cccc4ccccc34)cc2CC1=O	x	x	-8	4	74*
CC(C)NC(=O)Nc1ccc2c(c1)CC(=O)N([C@H](C)CO)C[C@H](C)[C@H](CN(C)Cc1ccc(Oc3ccccc3)cc1)O2	x	x	19	2	36
COc1cccc(S(=O)(=O)N(C)C[C@@H]2Oc3cc(C#CCC(C)C)ccc3S(=O)(=O)N([C@@H](C)CO)C[C@H]2C)c1	x	x	-9	4	-39
CS(=O)(=O)N1[C@@H](C#N)[C@H](c2ccc(-c3ccccc3F)cc2)[C@@H]1CO	x	x	-9	-4	-6
COC(=O)C[C@H]1C=C[C@@H](NC(=O)c2ccccc2)[C@@H](CO)O1	x	x	-7	5	-5
CCCC(=O)Nc1ccc2c(c1)OC[C@@H](C)N(Cc1ccccn1)C[C@@H](C)[C@H](OC)CN(C)C2=O	x	x	x	94*	6
CCCC(=O)Nc1ccc2c(c1)OC[C@H](C)N(Cc1ccccn1)C[C@H](C)[C@H](OC)CN(C)C2=O	x	x	x	113*	4
COCC1=C2[C@@H](c3ccccc3)OB(O)C[C@@H]2[C@@H]2C(=O)N(Cc3ccccc3)C(=O)[C@@H]2C1	x	x	-13	-4	x
CSc1nnc(-c2ccccc2)c(=O)[nH]1	-3	-2	-24	0	97*
CCCC(=O)Nc1ccccc1-c1nnc(SC)[nH]c1=O	-9	-1	-10	-1	-11

Four of the compounds above, as labelled records:
CCCC(=O)Nc1ccc2c(c1)OC[C@H](C)N(Cc1ccccn1)C[C@H](C)[C@H](OC)CN(C)C2=O
  Rtt109 Vps75 = x; CDK5 inh = x; Yeast UUG start = x; Cneo AK release = 113*; C2C12 statin = 4
COCC1=C2[C@@H](c3ccccc3)OB(O)C[C@@H]2[C@@H]2C(=O)N(Cc3ccccc3)C(=O)[C@@H]2C1
  Rtt109 Vps75 = x; CDK5 inh = x; Yeast UUG start = -13; Cneo AK release = -4; C2C12 statin = x
CSc1nnc(-c2ccccc2)c(=O)[nH]1
  Rtt109 Vps75 = -3; CDK5 inh = -2; Yeast UUG start = -24; Cneo AK release = 0; C2C12 statin = 97*
CCCC(=O)Nc1ccccc1-c1nnc(SC)[nH]c1=O
  Rtt109 Vps75 = -9; CDK5 inh = -1; Yeast UUG start = -10; Cneo AK release = -1; C2C12 statin = -11

The listing continues:
SMILES	Rtt109 Vps75	CDK5 inh	Yeast UUG start	Cneo AK release	C2C12 statin
CCN(C(=O)COC(=O)c1cnc(C)cn1)C1CCCCC1	-4	-1	-9	-1	135*
CCOC(=O)c1ccc2c(c1)nc(COc1ccc(OC)cc1)n2CC	4	1	-20	-1	107*
CN(C)C(=O)C[C@@H]1CC[C@H](NC(=O)c2ccc(F)cc2)[C@H](CO)O1	x	x	-13	-6	-4
COc1ccccc1N=c1oc2cc(O)ccc2cc1C(N)=O	-3	7	-26	-3	-130
Cc1cccc(N=c2oc3cc(O)ccc3cc2C(N)=O)c1	9	1	-6	0	118*
COc1ccc(NC(=O)c2nc3ccccc3s2)cc1	54*	2	x	x	x
Nc1nc(Nc2ccccc2)sc1C(=O)c1ccccc1	-1	82*	-8	1	x
COc1ccc(C(=O)c2sc(Nc3ccccc3F)nc2N)cc1	5	25	-14	-3	52
COc1ccc(C(=O)c2sc(Nc3ccccc3)nc2N)cc1	3	6	-11	-8	78*
COc1ccc(C(=O)c2sc(Nc3ccccc3)nc2N)cc1OC	-11	10	-18	-2	-4
C[C@H]1CCCCO[C@@H](CN(C)C)[C@@H](C)CN([C@@H](C)CO)C(=O)c2cc(NS(C)(=O)=O)ccc2O1	x	x	-1	-1	-1
COc1ccc(CN(C)C[C@H]2Oc3c(NC(=O)Nc4c(C)noc4C)cccc3C(=O)N([C@H](C)CO)C[C@H]2C)cc1	x	x	-18	0	-14
Cc1ccccc1CNCc1cccnc1	18	0	x	x	1
CCc1ccc(CNCc2cccnc2)cc1	14	0	-21	-2	114*
CC(C)(C)C(=O)Nc1ccccc1N1CCN(C(=O)c2ccc(Cl)cc2)CC1	4	0	11	3	127*
CCOC(=O)C1=C(C)NC(C)=C(C(=O)OCC)C1C(=O)OCC(=O)NCCc1ccc(S(N)(=O)=O)cc1	53*	0	-9	7	3
Cn1ccnc1SCC(=O)Nc1ccccc1	x	1	-11	-1	137*
Cc1cccc(NC(=O)CSc2nccn2C)c1	-1	1	x	x	x
CC(C)C(=O)Nc1cc(S(=O)(=O)N2CCOCC2)ccc1N1CCCCC1	-2	0	-8	-1	108*
CO[C@H]1CN(C)C(=O)c2cc(C#N)ccc2OCC[C@@H]2CC[C@@H](OC)[C@H](CN(C)C(=O)[C@H]1C)O2	x	x	x	4	0
C[C@H]1CN([C@@H](C)CO)S(=O)(=O)c2ccc(C3=CCCC3)cc2O[C@H]1CN(C)Cc1ccccc1	x	x	-13	13	-18
C=C1C(=O)C23C(O)C1CCC2C12COC3(O)C(O)C1C(C)(C)CCC2O (configuration not stated)	x	x	7	-2	110*
COc1ccc(NC(=O)Nc2ccc3c(c2)[C@H]2C[C@H](CC(=O)NCc4ccccn4)O[C@@H](CO)[C@H]2O3)cc1	x	x	x	35	1
Cc1ccc(S(=O)(=O)N[C@@H]2CC[C@@H](CC(=O)N3CCC(Cc4ccccc4)CC3)O[C@H]2CO)cc1	x	x	5	-2	13
CCS(=O)(=O)Nc1ccc2c(c1)C(=O)N(C)[C@@H]1CC[C@H](CC(=O)N3CCN(C)CC3)O[C@H]1CO2	x	x	x	-1	10
COc1ccc(NC(=O)C2CCC(=O)N2)cc1 (configuration not stated)	26	1	-6	1	11
Cc1cc(C)c(NC(=O)C2CCC(=O)N2)c(C)c1 (configuration not stated)	-2	-1	0	735*	-3
O=C(C[C@@H]1C[C@@H]2c3cc(NC(=O)c4cccnc4)ccc3O[C@@H]2[C@H](CO)O1)NCC(F)(F)F	x	x	x	-1	1
Cc1ccc(-n2ncc3c(=O)[nH]c(SCC(=O)N4CCOCC4)nc32)cc1	5	1	-3	-2	129*
O=C(CSc1nc2c(cnn2-c2ccc(F)cc2)c(=O)[nH]1)N1CCOCC1	13	0	-8	0	-3
O=C(CSc1nc2c(cnn2-c2ccccc2)c(=O)[nH]1)N1CCOCC1	-5	-1	-14	-1	142*
CCOC(=O)C(C)Sc1nc2c(cnn2-c2ccc(C)cc2)c(=O)[nH]1 (configuration not stated)	-4	-2	-9	1	97*
CC(C)NC(=O)N(C)C[C@@H]1Oc2ncc(C#CCN(C)C)cc2C(=O)N([C@H](C)CO)C[C@@H]1C	x	x	39	6	4
CC(=O)Nc1ccc(NC(=O)CSc2nnc(C3CC3)n2C)cc1	1	0	-4	1	127*

Bioassay records as filed in PubChem.
